# Assay results as given in PubChem BioAssay AID540263 (National Center for Advancing Translational Sciences (NCATS), 2011).
# Protein sequences, listed by entry. Tags and fused reporters are not part of them.
# UniProt Q14974, whole entry, looked up: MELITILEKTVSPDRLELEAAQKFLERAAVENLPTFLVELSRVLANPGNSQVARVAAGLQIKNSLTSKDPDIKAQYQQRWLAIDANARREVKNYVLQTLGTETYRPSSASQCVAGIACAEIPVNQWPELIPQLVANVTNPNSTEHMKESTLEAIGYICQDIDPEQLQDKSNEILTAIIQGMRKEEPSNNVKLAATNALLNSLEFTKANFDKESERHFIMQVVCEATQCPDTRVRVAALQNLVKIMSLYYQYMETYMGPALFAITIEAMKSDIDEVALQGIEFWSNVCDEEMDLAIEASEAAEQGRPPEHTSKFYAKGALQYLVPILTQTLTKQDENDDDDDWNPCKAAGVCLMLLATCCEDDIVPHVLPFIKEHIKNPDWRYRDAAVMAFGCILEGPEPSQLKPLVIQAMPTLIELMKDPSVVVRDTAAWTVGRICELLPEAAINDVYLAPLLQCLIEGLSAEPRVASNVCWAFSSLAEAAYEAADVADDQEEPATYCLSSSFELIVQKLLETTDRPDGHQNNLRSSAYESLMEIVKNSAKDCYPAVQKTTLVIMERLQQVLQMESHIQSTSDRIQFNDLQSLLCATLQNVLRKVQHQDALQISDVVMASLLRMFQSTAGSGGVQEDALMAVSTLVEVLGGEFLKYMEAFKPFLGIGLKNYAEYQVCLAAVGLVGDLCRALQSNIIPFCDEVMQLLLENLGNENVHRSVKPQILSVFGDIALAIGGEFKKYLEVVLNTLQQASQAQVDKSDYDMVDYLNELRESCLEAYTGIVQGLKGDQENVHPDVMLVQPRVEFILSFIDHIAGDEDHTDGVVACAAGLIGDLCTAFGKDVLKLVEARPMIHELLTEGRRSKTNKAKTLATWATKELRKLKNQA
# Hit rate of the full screen: of about 340,000 compounds, about 100 (0.029%) were called active. These results got no clear call from the source, so the numbers are uncertain. The call rests on the fitted dose curve.
# Target: Importin subunit beta-1 (Homo sapiens) (UniProt Q14974)
# Experiment: qHTS Assay for Inhibitors of Rango (Ran-regulated importin-beta cargo) - Importin beta complex formation; further: nearly all actives have a fitted effect of over 15% in size;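 on inhibition of complex formation: 0% = DMSO wells and 100% = buffer wells lacking importin beta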
# Settings: Rango CFP/YFP FRET sensor + importin beta, 45 min; inhibition of complex formation: at 92.2 µM (top of the series)
# Description: NIH Molecular Libraries Probe Production Centers Network [MLPCN] NIH Chemical Genomics Center [NCGC] MLPCN Grant: R03 MH090808-01A1 Assay Submitter (PI): Petr Kalab NCGC Assay Overview: The small GTPase Ran regulates transport of macromolecules between the nucleus and the cytoplasm (nuclear transport) and has important functions in mitotic spindle assembly, nuclear envelope (NE) formation and nuclear pore complex (NPC) assembly. RanGTP gradient is thought to promote spindle assembly by providing a spatial clue to microtubule nucleation and Aurora A activation. Because the localized release and binding of importin alpha cargo relays this spatial clue to SAFs, inhibitors of the Rango - importin beta complex can then be used in further understanding their role in cell cycle specifically in mitosis progression. […] Activation of Aurora A has been linked to different types of cancer and a number of Aurora kinase inhibitors are being developed as potential canter therapeutics therefore, identified inhibitors of this complex could be developed into potential anti-mitotic probes for cancer treatment. Purified recombinant proteins Rango and importin beta were provided by the assay submitter. The assay used a fluorescence resonance energy transfer (FRET) Rango biosensor that contains the IBB of human snurportin 1 flanked by yellow fluorescent protein (EYFP) at the amino terminus and cerulean CFP10 at the carboxy terminus. […] Inhibitors will therefore be identified based on the ability to interfere with the FRET signal decrease. DMSO treated and no importin beta (buffer only) wells were used as negative and positive controls respectively. FRET readings were obtained at two time points. FRET reading prior to importin beta addition (pre-read) were used flag potential compound interference; FRET reading after importin beta addition (post-read) were used to identify inhibitors using the FRET ratio parameter.
# NCGC Assay Protocol Summary: Two and a half uL/well of Rango-buffer solution (50 nM Rango, 1x PBS, 1mM DTT, 0.02% Tween-20, 0.1% BSA final concentrations) was dispensed into 1536-well assay plates (Greiner, solid black medium-binding plates) with Aurora Discovery BioRAPTR Flying Reagent Dispenser (FRD; Beckton-Dickenson). Compound solution (23 nL) was transferred to the assay plate using Kalypsys pin tool equipped with a 1536-pin tool and incubated at room temperature for 5 min followed by a FRET pre-read using the PerkinElmer Envision plate reader. Two and a half uL/well of Importin beta - buffer solution (0.125 microM importin beta, 1x PBS, 1mM DTT, 0.02% Tween-20, 0.1% BSA final concentrations) were then added and incubated at room temperature giving a final reaction volume of 5uL. After 45min FRET post-read was obtained via the Envision plate reader using the same optics and settings as the pre-read (CFP/YFP optimized dual optical module D450/D505; excitation mirror CFP 430/24 nm; and emission filters CFP 486/10 nm and YFP 530/10 nm).
# Potency means the concentration at half of the fitted maximal effect.
Compound,Potency,inhibition of complex formation
CC(=O)N1C2C3N(C(C)=O)C1C1N(C(C)=O)C(C(N1C(C)=O)N3C(C)=O)N2C(C)=O,inconclusive: 100 µM,–
CN(C)C(=O)OCCc1n(C)cc[n+]1C,inconclusive: 7.08 µM,–
N#C/C(=C\c1ccc(N(CCBr)CCBr)cc1)C(N)=O,inconclusive: 100 µM,–
CC(=O)NC(SC(=S)N(C)C)C(Cl)(Cl)Cl (stereo unspecified),–,inconclusive: -0.287%
CCCOP(=S)(Nc1nc(N)cc(=O)[nH]1)OCCC,inconclusive: 4.47 µM,–
Cc1cc(SC(NC(=O)c2ccccc2)C(Cl)(Cl)Cl)nc(C(C)C)n1 (stereo unspecified),inconclusive: 70.8 µM,–
